From article PMC5384220, “Highly selective inhibition of histone demethylases by de novo macrocyclic peptides” (Nature Communications, 2017) come the findings set out here.

Chains of the proteins cited; added tags and fusions are not shown. Lines headed by an entry give the natural chain unless they say otherwise; changes in a name come on top. Residues count along the entry.
UniProt O15054, 1141-1641: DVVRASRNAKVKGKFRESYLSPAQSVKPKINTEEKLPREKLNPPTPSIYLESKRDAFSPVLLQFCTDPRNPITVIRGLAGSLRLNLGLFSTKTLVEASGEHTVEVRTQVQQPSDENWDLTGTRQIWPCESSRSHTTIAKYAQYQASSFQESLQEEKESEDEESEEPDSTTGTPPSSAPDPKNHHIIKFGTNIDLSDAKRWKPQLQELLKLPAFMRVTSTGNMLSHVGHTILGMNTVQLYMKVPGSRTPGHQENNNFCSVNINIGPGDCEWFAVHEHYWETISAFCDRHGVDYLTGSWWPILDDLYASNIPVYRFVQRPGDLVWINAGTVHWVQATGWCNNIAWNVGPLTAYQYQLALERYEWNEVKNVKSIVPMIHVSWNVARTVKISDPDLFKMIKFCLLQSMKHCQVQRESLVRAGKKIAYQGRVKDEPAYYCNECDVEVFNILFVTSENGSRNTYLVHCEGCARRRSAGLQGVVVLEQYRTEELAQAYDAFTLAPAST
UniProt Q9NWT6: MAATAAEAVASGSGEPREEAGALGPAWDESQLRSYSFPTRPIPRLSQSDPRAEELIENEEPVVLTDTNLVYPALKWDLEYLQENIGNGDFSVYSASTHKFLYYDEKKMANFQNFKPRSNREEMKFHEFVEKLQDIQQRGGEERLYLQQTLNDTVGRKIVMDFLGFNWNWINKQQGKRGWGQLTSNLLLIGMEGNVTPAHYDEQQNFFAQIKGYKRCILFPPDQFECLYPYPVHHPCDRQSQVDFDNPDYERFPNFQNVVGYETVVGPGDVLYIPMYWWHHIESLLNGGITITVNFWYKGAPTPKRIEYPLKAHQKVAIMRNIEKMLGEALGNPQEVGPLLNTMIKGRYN

One data set deals with T1, KDM4A (Homo sapiens, UniProt O75164).
T1 construct: KDM4A 1-359 E.coli; Hexa-His (N); made in house; host or cells: E. coli
T1 sequence (O75164 1-359): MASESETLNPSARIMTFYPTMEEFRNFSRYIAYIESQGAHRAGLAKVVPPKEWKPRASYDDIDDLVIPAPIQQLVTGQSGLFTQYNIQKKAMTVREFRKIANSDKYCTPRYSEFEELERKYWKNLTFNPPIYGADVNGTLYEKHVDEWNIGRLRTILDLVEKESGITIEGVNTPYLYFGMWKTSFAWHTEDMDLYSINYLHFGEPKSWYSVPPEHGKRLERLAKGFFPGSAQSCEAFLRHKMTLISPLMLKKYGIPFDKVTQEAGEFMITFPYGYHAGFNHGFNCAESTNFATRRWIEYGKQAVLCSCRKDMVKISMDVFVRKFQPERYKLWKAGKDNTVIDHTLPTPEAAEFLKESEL
The experiment in a line: AlphaScreen demethylase activity assay, KDM4A. Particulars: read-out: IC50 KDM4A, KDM4A 1-359. The format is biochemical. The protocol: (§1) IC50 values for KDM2–6 were measured using an AlphaScreen assay as described. The appropriate KDM (5 μl) was pre-incubated with an inhibitor (0.1 μl in DMSO) or DMSO for 15 min before the addition of 5 μl mixture of biotinylated peptide substrates, 2OG, ferrous ammonium sulfate (1–10 μM final) and ascorbate (100 μM final) to initiate the demethylation reaction. The reaction was quenched with 5 μl of 30 mM EDTA at predetermined reaction times for each enzyme (initial rate). Demethylated product was detected by addition of 5 μl of AlphaScreen donor and acceptor beads (AlphaScreen General IgG Detection Kit, 0.02 mg ml^−1 final each) pre-incubated with antibody. The plates were read after 1 h incubation in a BMG Labtech Pherastar FS plate reader. Data were normalized to a no enzyme control and IC50 values were calculated using nonlinear regression curve fits using GraphPad Prism. Assay buffer (50 mM HEPES pH 7.5, BSA (0.1% w/v) and Tween-20 (0.01% v/v)) was used throughout, except for dilution of stock ferrous ammonium sulfate solutions where water was used. The enzyme, substrate and antibody concentrations used are described in Supplementary Table 3. A fluorescence-based LSD1 inhibitor screening assay kit (Cayman, 700120) was used for KDM1/LSD1 assay. Assays for prolyl hydroxylase domain 2 and factor inhibiting HIF using matrix-assisted laser desorption/ionization–time of flight MS were performed as previously described. Prism 5.0 (GraphPad) was used to generate and to fit dose–response curves. IC50 values were determined by plotting percentage inhibition versus compound concentration relative to positive (vehicle) and negative (no enzyme) controls, using normalized dose–response (variable slope) fit. The reported values are the mean of multiple experiments (n≥3). The formaldehyde dehydrogenase coupled KDM assay was used to determine the mode of inhibition, using 0.5 μM His-KDM4A1–359. Prism 5.0 (GraphPad) was used to fit in mix-mode inhibition, to determine the kinetic parameters. Binding constants for CPs and H3(1–15)K9me3 were measured using biolayer interferometry (OctetRed 384, ForteBio) in buffer (50 mM HEPES (pH 7.5), 150 mM NaCl, 10 μM ammonium iron(II) sulphate). His-KDM4A1–359-Bio (70 nM) was immobilized onto super streptavidin biosensor and subjected to different peptide concentrations in buffer. Data analysis was performed using ForteBio Data Aalysis (v6.4).
(§2) Construct Expression [E] / nM [2OG] / µM [Fe(II)] / µM Peptide / nM Peptide sequence Antibody Source […]
(§3) Supplementary Table 3. AlphaScreen assay parameters for 2OG oxygenases used for this study. The table was dapted from 10. Assays were performed at 2OG concentration near the 2OG Km values determined experimentally.11 All enzymes were expressed and purified as described.10-12
On the technique in general: Alpha assays give light when donor and acceptor beads are brought close together.

The target in the next data set is T2, KDM4C (Homo sapiens, UniProt Q9H3R0).
T2 construct: KDM4C 1-366 E.coli; made in house; host or cells: E. coli
T2 sequence (Q9H3R0 1-366): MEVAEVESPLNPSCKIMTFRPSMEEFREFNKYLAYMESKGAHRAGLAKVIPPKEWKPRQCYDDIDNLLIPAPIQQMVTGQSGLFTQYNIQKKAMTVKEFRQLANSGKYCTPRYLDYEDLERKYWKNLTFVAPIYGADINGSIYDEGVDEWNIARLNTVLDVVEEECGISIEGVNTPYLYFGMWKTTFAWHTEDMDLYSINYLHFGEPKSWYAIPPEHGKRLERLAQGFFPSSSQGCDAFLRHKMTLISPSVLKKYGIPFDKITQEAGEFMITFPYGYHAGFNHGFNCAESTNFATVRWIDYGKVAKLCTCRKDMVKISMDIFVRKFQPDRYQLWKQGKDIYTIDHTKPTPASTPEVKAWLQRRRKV
Kind of data set: AlphaScreen demethylase activity assay, KDM4C. The format is biochemical. The settings on record: read-out: IC50 KDM4C. As for the experimental part:
as §1, §2, §3

Data set [1] concerns H3K9me3/H3K36me3 in HeLa cells. Particulars: 72 h treatment, nuclei count.
The target of the next data set is T3, KDM6B (Homo sapiens, UniProt O15054).
T3 construct: KDM6B 1141-1641 E.coli; made in house; host or cells: E. coli
The experiment in a line: AlphaScreen demethylase activity assay, KDM6B. In kind it is biochemical. Particulars: read-out: IC50 KDM6B. The protocol: as §1, with “The reported values are the mean of multiple experiments (n≥3). The formaldehyde dehydrogenase coupled KDM assay was used to determine the mode of inhibition, using 0.5 μM His-KDM4A1–359. Prism 5.0 (GraphPad) was used to fit in mix-mode inhibition, to determine the kinetic parameters.” left out, “His-KDM4A1–359-Bio (70 nM) was immobilized onto super streptavidin biosensor and subjected to different peptide concentrations in buffer. Data analysis was performed using ForteBio Data Aalysis (v6.4).” left out
Supplementary Table 3. […] Assays were performed at 2OG concentration near the 2OG Km values determined experimentally.11 All enzymes were expressed and purified as described.10-12

In another data set the target is FIH (Homo sapiens, UniProt Q9NWT6). The experiment in a line: MALDI-TOF MS assay, FIH. In kind it is biochemical. The settings on record: read-out: IC50 FIH. As for the experimental part:
as §1, with “Prism 5.0 (GraphPad) was used to fit in mix-mode inhibition, to determine the kinetic parameters.” left out, “His-KDM4A1–359-Bio (70 nM) was immobilized onto super streptavidin biosensor and subjected to different peptide concentrations in buffer. Data analysis was performed using ForteBio Data Aalysis (v6.4).” left out

For a further data set, the target named is T4, KDM1A/LSD1 (Homo sapiens, UniProt O60341).
T4 construct: purchased Cayman 700120
Kind of data set: Fluorescence-based LSD1 inhibitor screening assay. The format is biochemical. Particulars: read-out: IC50 KDM1A. As for the experimental part:
as §1, with “Prism 5.0 (GraphPad) was used to fit in mix-mode inhibition, to determine the kinetic parameters.” left out, “His-KDM4A1–359-Bio (70 nM) was immobilized onto super streptavidin biosensor and subjected to different peptide concentrations in buffer. Data analysis was performed using ForteBio Data Aalysis (v6.4).” left out

Values joined by “and” are separate entries in the source; they are usually repeats but may differ in a detail not shown here. Equal entries are not always repeated.

For the substance DY(meV)YNTRSDAWRW(4FF)P(meC) [CP2.3], the IC50 at KDM4A turned out to be 0.11 µM; at KDM4C, 0.069 µM. Also, the “Concentration giving significant reduction in cell numbers” value in data set [1] is > 10 µM.
Taken in the same sequence, the figures for DY(meV)YNTRSDAWRWY(meT)(meC) [CP2.2] were 0.1 µM, 0.274 µM and > 10 µM.
As for DYVYNTRSDAWRWYT(meC) [CP2.1], the IC50 on KDM4A amounted to 0.029 µM; at KDM4C, 0.015 µM. In data set [1], the “Concentration giving significant reduction in cell numbers” value was > 10 µM.
Turning to DYVYNTRSGWRWYTC [CP2], the half-maximal inhibitory concentration (IC50) is < 0.05 µM and 0.042 µM at KDM4A; 6.8 µM at KDM6B; < 0.05 µM and 0.029 µM on KDM4C; > 1000 µM on FIH; > 10 µM at KDM1A/LSD1.
For LYLKSRRSGLTWIPC [CP4], the IC50 at KDM6B is 7.2 µM; at FIH it was > 1000 µM; on KDM1A/LSD1, > 10 µM.
Turning to LYSKYTQSGVRWVC [CP5], the IC50 at KDM4A was < 0.5 µM and 0.313 µM; at KDM6B, > 10 µM; at KDM4C, 0.123 µM; at FIH, > 1000 µM; on KDM1A/LSD1, > 10 µM.

The IC50 is the point on the concentration scale where inhibition reaches its midpoint.
